miR-21 reporter: raises the signal of a miR-21 reporter; AID 2288; 340,000 tested, under 10 active; Potency, µM (doses to about 38.3 µM), inactives show at the top dose reporter change, positive = more light; HeLa miR-21 FLuc reporter, luciferase, 48 h; active = well fitted rising curve with a large enough effect; inconclusive = small, poorly fitted or top-dose-only effect; inactive = no such curve, though single readings can be large or run the other way;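 note: % of control where 0% means no effect; miR-21 action dims this reporter so a rising signal means less miR-21 action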
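Luminescence from a firefly luciferase reporter carrying a miR-21 binding site downstream, stably expressed under a CMV promoter in HeLa cells that make miR-21 endogenously, reports miRNA modulation after 48 h compound exposure up to approximately 40uM final.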
A549 viability: kills or reduces viability of A549 cells in Nrf2 counter-screen | A549 ARE-Fluc cells, CellTiter-Fluor viability, 18-24 h | Potency, µM (titrated, usually from 46 µM), for the others: top-dose activity change, negative = cytotoxicity, hits mostly inhibitors | hit rate 0.16% among 390,000; also: potency is read from the fitted curve at half-maximal effect; % is scaled to controls: 0 for no effect and ±100 for the full control effect
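A549 ARE_Fluc cells in 5% FBS OPTI-MEM were exposed to compounds in concentration-response for 18-24 h at 37 deg C. Viability was read by CellTiter-Fluor fluorescence (Ex 405/Em 525) after 30 min, before the luciferase read.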
Nrf2 ARE act: activators of Nrf2 (ARE) signaling | AID 624171 | hit rate 0.31% among 410,000 | AREc32 ARE-luciferase reporter (MCF7-derived line), luminescence, 24 h | Potency, µM (titrated, usually from 46.1 µM), without a hit: at the top dose activation, most hits filed as activators; also: potency is read from the fitted curve at half-maximal effect; % of control where 0% means no effect; nearly all actives have a fitted effect of over 65% in size
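AREc32_Fluc, 1000 cells/well, OPTI-MEM + 5% FBS, o/n 37 deg C 5% CO2; 23 nL cpd by pin tool, 24 hr; Steady-Glo 30 min RT, luminescence.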
ClpP mod: qHTS Assay for Activators of ClpP; ATP-dependent Clp protease proteolytic subunit (Bacillus subtilis (strain 168)), P80244; purified B. subtilis ClpP, FRET peptide cleavage, 20 min; Potency, µM (titrated, usually from 57.5 µM), without a hit: at the top dose activity change, negative = active; hit rate 1.9% among 340,000; active = well fitted falling curve with a large enough effect; inconclusive = small, poorly fitted or top-dose-only effect; inactive = no such curve, though single readings can be large or run the other way; also: potency is read from the fitted curve at half-maximal effect; the source files actives as falling curves though it sought activators and does not explain the sign; nearly all actives have a fitted effect of over 65% in size
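Purified B. subtilis ClpP, 10 microg/mL final in Tris/HCl pH8 with KCl, BSA, glycerol and Tween-20, cleaved an Abz/nitrotyrosine-quenched decapeptide. Fluorescence (ex 320, em 430) was read at 0 and 20 min at room temperature. Delta was normalized to 5.8 microM ADEP and DMSO/no-enzyme controls.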
p53 reactivator: mutant p53 re-activation in reporter cells | H1299 p53-A138V BP100-luciferase reporter, luminescence, 24 h | Potency, µM (series often up to 92.2 µM), inactives show at the highest dose activity change, positive = activation, most hits filed as activators | hit rate 0.063% among 320,000 | AID 504706; also: potency is read from the fitted curve at half-maximal effect; % of control where 0% means no effect; nearly all actives have a fitted effect of over 45% in size
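p53-null H1299 cells stably carrying temperature-sensitive p53-A138V and a BP100-luciferase reporter were pinned with compounds (4-point, 1:5 series) and held 24 hrs at 37 deg C. Luminescence was read 10 min after detection reagent.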
Nrf2 inh: blocks Nrf2 signaling | hit rate 2.1% among 360,000 | AID 504444 | Potency, µM (series often up to 46 µM), for inactives: top-dose activity change, negative = inhibition, most hits filed as inhibitors | A549 ARE-Fluc reporter, luciferase luminescence, 18-24 h; also: potency is read from the fitted curve at half-maximal effect; % is scaled to controls: 0 for no effect and ±100 for the full control effect; nearly all actives have a fitted effect of over 60% in size
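Nrf2 activity is the BugLite luminescence, read 15 min after reagent at room temperature, following CellTiter-Fluor cytotoxicity readout (30 min, 37C). Compound titrations were applied for 18-24 h to 5000 A549 ARE_Fluc cells/well in 5% FBS OPTI-MEM.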
* hit, by the source's call; ? = inconclusive; / = no result given. This is a sample that favours compounds with a hit; in the whole collection about 3.7% have one here. Unless noted, calls follow the shape of the dose curve; as a rule, active = well fitted curve in the direction sought with a large enough effect; inconclusive = small, poorly fitted or top-dose-only effect, or another doubt; inactive = no such curve, though single readings can be large; an effect the other way counts as inactive or inconclusive.

Start of the listing, in advance, four compounds:
SMILES | miR-21 reporter | A549 viability | Nrf2 ARE act | ClpP mod | p53 reactivator | Nrf2 inh
C=CC(=O)N1C/C(=C/c2ccccc2)C(=O)/C(=C\c2ccccc2)C1 | / | ? | ? | 31.6µM* | / | ?
C=CC(=O)N1C/C(=C/c2ccc(Cl)cc2)C(=O)/C(=C\c2ccc(Cl)cc2)C1 | / | 23.1µM* | -2.7% | 5.5% | / | ?
CCc1ccc(C(=O)c2cn(CC(=O)Nc3cccc(OC)c3)c3ccc(OC)cc3c2=O)cc1 | -14.9% | -8.0% | -0.4% | -8.9% | / | -21.4%
CCOC(=O)c1cc(-c2cc3ccccc3o2)nc2c1c(=O)[nH]c(=O)n2CCOC | -1.7% | 0.8% | -0.6% | 7.08µM* | -5.4% | -2.8%

Main list, from the start:
SMILES | miR-21 reporter | A549 viability | Nrf2 ARE act | ClpP mod | p53 reactivator | Nrf2 inh
C=CC(=O)N1C/C(=C/c2ccccc2)C(=O)/C(=C\c2ccccc2)C1 | / | ? | ? | 31.6µM* | / | ?
C=CC(=O)N1C/C(=C/c2ccc(Cl)cc2)C(=O)/C(=C\c2ccc(Cl)cc2)C1 | / | 23.1µM* | -2.7% | 5.5% | / | ?
CCc1ccc(C(=O)c2cn(CC(=O)Nc3cccc(OC)c3)c3ccc(OC)cc3c2=O)cc1 | -14.9% | -8.0% | -0.4% | -8.9% | / | -21.4%
CCOC(=O)c1cc(-c2cc3ccccc3o2)nc2c1c(=O)[nH]c(=O)n2CCOC | -1.7% | 0.8% | -0.6% | 7.08µM* | -5.4% | -2.8%
CC(=O)c1c(C)oc2ccc(N(C(C)=O)S(=O)(=O)c3cccc4cccnc34)cc12 | 12.8% | -13.8% | -0.2% | / | -2.7% | 18.4µM*
Cc1ccc(CNc2ncnc3ccc(-c4ccc5c(c4)OCO5)cc23)o1 | / | -4.4% | / | / | / | 0.3%
CN1C=C/C(=C\c2cc[n+](C)c3ccccc23)c2ccccc21 | ? | ? | -0.5% | -1.8% | -1.1% | 5.8µM*
C[n+]1ccc(/C=C/c2cc[n+](C)c3ccccc23)c2ccccc21 | / | / | / | -12.7% | / | /
C=CC[n+]1cccc2cccc(O)c21 | / | / | / | 0.4% | / | /
Cc1cccc(NC(=O)CCc2c(C)nc3c(c(C)nn3C(C)(C)C)c2C)c1C | ? | -9.0% | 0.4% | -12.6% | / | 18.4µM*
COC(=O)c1ccc(NC(=O)CCc2c(C)nc3c(c(C)nn3C(C)(C)C)c2C)cc1 | -1.6% | -12.6% | -3.9% | -1.2% | / | ?
Cc1cc2c(s1)c1cnn(Cc3ccc(F)cc3Cl)c(=O)c1n2C | / | 0.5% | / | / | / | 4.0%
O=C(Nc1cc(F)ccc1F)c1cc2nc(-c3ccco3)cc(C(F)(F)Cl)n2n1 | -9.7% | -7.9% | 3.3% | ? | / | /
CN1CCN(C(=O)CCN2C(=O)/C(=C/c3ccccc3Cl)SC2=S)CC1 | 18.4% | 20.6µM* | ? | / | -5.6% | ?
O=C(CCCN1C(=O)S/C(=C\c2ccccc2)C1=O)NNC(=O)c1ccccc1O | ? | 1.8% | -3.0% | / | -8.1% | 13µM*
CN1CCN(C(=O)CCN2C(=O)/C(=C\c3ccccc3F)SC2=S)CC1 | 24.1% | 23.1µM* | 17.0% | 3.1% | ? | ?
CC(/C=C1\SC(=O)N(CCCC(=O)O)C1=O)=C\c1ccccc1 | ? | -0.7% | -2.6% | 3.6% | -13.9% | 2.31µM*
CN(C)CC(=O)N[C@@H]1CC[C@@H](CCNS(=O)(=O)c2ccccc2)O[C@@H]1CO | / | / | / | -11.7% | / | /
CNC(=O)C[C@H]1C(=O)N(CCc2ccccc2)C[C@@H]1c1ccc(OC)cc1 | / | / | 0.3% | -9.7% | / | /
O=C(CCCN1C(=O)/C(=C/c2ccccc2Cl)SC1=S)NNC(=O)c1ccccc1 | ? | -12.2% | 0.0% | -0.9% | -35.9% | 20.6µM*
O=C(NCc1cccc(Cl)c1)c1cc2c(s1)-c1ccccc1SC2 | 8.6% | -26.3% | 0.7% | ? | / | ?
O=C(NCc1ccc(Cl)cc1)c1cc2c(s1)-c1ccccc1SC2 | -14.3% | -7.3% | 0.5% | 31.6µM* | / | ?
CN(Cc1ccccc1)C(=O)c1cc2c(s1)-c1ccc(Cl)cc1SC2 | -15.1% | -22.6% | 5.3% | 25.1µM* | / | ?
Cc1cccn2c(=O)c(/C=C(\C#N)c3nc4ccccc4n3C)c(Oc3ccc(Br)cc3)nc12 | 3.3% | -1.3% | 13.3% | -17.9% | / | 19.9%
CCOC(=O)C(=CNc1ccc2c(c1)nnn2-c1ccc(Cl)cc1)C(=O)OCC | -6.5% | ? | 4.1% | 2.0% | -8.3% | 29.1µM*
CCOC(=O)C(=CNc1cc(C)nn1-c1ccc(C)cc1)C(=O)OCC | 17.2% | -19.3% | -0.1% | -1.7% | 3.9% | ?
COc1ccc(C2c3c(N)nc(CCCc4ccccc4)nc3Oc3ccc4ccccc4c32)cc1OC (stereo not given) | / | -10.6% | / | / | / | -8.9%
Cc1c(C#N)c(NC(=O)CCl)n(Cc2ccccc2)c1C | ? | -0.7% | ? | / | -12.6% | -27.9%
